Biological target: Prostaglandin E2 receptor EP4 subtype (Mus musculus, UniProt P32240)
Experiment: Binding affinity towards mouse Prostanoid EP4 receptor in CHO cells.
Assay type: cell-based

Amino acid sequences for entries named in this document (tags omitted). A change or cut given only in a name is not applied to a line headed by its entry.
UniProt P32240: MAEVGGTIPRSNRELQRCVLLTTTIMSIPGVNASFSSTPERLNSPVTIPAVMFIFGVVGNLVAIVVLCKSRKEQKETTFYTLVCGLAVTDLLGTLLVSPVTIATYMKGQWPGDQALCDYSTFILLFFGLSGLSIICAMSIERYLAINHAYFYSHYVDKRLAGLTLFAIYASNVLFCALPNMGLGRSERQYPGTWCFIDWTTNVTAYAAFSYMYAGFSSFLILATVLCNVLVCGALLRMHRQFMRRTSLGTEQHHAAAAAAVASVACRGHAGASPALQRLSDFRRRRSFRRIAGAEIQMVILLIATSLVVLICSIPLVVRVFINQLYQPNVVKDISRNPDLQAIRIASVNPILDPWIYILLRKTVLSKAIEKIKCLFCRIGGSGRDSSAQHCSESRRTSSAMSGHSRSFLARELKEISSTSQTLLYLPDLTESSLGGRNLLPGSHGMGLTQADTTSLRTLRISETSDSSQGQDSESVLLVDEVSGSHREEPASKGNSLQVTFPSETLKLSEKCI

Ki: 3.1 nM
Compound: CCCCC[C@@H](O)/C=C/[C@H]1[C@H](O)CC(=O)[C@@H]1C/C=C\CCCC(=O)O

Reference: ChEMBL document CHEMBL1133892, “Design and synthesis of a highly selective EP2-receptor agonist” (Bioorg Med Chem Lett, 2001)
